pKi: −log10 of the molar value.
What was measured:
[1] = tested on: E. crus-galli, S. faberii, D. sanguinalis, A. retroflexus, E. prostrata, A. juncea; assay: Post-emergence greenhouse herbicidal activity; type: in vivo; set-up: scale not given here; details: 150 g ai/ha, sum over six weeds (AJ, AR, EP, DS, EC, SF), 18 days after treatment
[2] = target: Arabidopsis thaliana HPPD (AtHPPD) (Arabidopsis thaliana, UniProt P93836); assay: AtHPPD enzyme inhibition study; type: biochemical; details: read-out: AtHPPD inhibition Ki
Procedure: AtHPPD was prepared and puriﬁed according to the reported methods in the literature [19–2035–37].

Amino acid sequences for entries named in this document (tags omitted).
UniProt P93836, whole entry: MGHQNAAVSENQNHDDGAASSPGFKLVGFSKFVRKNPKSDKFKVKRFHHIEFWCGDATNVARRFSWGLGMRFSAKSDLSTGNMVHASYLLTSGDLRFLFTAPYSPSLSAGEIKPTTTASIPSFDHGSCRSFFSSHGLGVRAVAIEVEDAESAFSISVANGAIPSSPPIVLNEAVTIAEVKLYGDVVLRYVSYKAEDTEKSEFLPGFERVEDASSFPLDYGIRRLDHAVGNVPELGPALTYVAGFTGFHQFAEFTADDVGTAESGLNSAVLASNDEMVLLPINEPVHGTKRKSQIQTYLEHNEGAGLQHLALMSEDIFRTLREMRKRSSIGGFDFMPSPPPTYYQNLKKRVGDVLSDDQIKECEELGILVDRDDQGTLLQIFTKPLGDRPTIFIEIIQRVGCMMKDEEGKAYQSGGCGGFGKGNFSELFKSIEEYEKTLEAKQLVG

Compound | Sum of inhibition rate [1] | pKi [2]
Cn1nc(C2CC2)c(C(=O)COc2ccc3ccccc3c2Br)c1O | 20 | 5.66
CC1(C)CC(=O)C(C(=O)COc2ccc3ccccc3c2Br)=C(O)C1 | 160 | 5.60
Cc1nn(C)c(O)c1C(=O)COc1ccc2ccccc2c1Br | 30 | 5.66

— PMC7059547, “Synthesis and herbicidal activities of aryloxyacetic acid derivatives as HPPD inhibitors” (Beilstein Journal of Organic Chemistry, 2020)
